Assays:
TDO (A172 cells) = TDO (A172 cells) (Homo sapiens, UniProt P48775); test: TDO cell-based assay (A172), kynurenine production; conditions: A172 human glioblastoma cells, 500 μM L-Trp, 48 h, kynurenine by absorbance at 490 nm
Description: (§1) Two different types of assay were employed: 1. A TDO and IDO biochemical coupled assay which utilised recombinantly produced and purified TDO and IDO enzymes in combination with the enzyme formamidase. This coupled enzyme system allowed conversion of N-formylkynurenine produced by TDO or IDO activity to kynurenine which was then quantified by fluorescence following addition of Erhlich's Reagent. 2. A cell-based assay for detecting the effect of test compounds on kynurenine production in two different cancer cell types. This assay utilised cancer cells which expressed either TDO or IDO and as such was used as a means of testing compound activity at these two enzymes in a cell-based context. The protocols for these are set out below.
(§2) A172 human glioblastoma (ATCC) were grown in DMEM+2 mM L-glutamine medium supplemented with 10% foetal bovine serum and SKOV-3 ovary adenocarcinoma (ATCC) cells were grown in McCoys 5A+L-glutamax medium supplemented with 15% foetal bovine serum. On the day of assay, cells were detached using trypsin-EDTA (0.25% v/v), re-suspended in assay media (RPMI 1640 phenol red free+L-glutamine supplemented with 10% dialysed foetal bovine serum). […] Kynurenine levels were then quantified by measuring absorbance at 490 nm.

By UniProt entry, the sequences of proteins in these tests, tags left out.
UniProt P48775, whole entry: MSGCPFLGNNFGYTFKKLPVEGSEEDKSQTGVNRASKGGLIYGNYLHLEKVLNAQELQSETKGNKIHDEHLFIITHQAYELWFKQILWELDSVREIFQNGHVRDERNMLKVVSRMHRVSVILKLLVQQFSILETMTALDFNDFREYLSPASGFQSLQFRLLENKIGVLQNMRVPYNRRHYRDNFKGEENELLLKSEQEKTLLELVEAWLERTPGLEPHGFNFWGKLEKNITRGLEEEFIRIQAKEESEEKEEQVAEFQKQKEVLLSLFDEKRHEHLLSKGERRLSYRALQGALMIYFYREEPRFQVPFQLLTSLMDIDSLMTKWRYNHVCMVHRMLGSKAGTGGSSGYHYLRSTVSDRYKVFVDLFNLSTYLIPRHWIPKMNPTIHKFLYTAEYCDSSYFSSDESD
UniProt P14902, whole entry: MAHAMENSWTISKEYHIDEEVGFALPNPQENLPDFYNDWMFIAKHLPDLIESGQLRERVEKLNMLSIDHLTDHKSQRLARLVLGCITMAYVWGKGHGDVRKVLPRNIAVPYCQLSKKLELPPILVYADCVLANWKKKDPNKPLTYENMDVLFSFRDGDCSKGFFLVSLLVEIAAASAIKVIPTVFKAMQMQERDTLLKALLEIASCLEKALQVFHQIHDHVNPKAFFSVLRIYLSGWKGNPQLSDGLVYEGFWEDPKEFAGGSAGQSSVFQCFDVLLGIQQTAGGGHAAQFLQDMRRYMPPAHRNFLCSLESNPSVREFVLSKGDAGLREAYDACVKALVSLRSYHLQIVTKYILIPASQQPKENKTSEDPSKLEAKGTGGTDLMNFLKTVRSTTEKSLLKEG

IDO (SKOV-3 cells) = IDO (SKOV-3 cells) (Homo sapiens, UniProt P14902); test: IDO cell-based assay (SKOV-3, IFNγ-induced), kynurenine production; conditions: SKOV-3 ovary adenocarcinoma cells, IFNγ 500 ng/ml, 500 μM L-Trp, 48 h, kynurenine by absorbance at 490 nm
Description: as §1, §2

- TDO cellular assay (A172) pIC50 (TDO (A172 cells)): + (+ = pIC50 4.50-<5.00)
- IDO cellular assay (SKOV3) pIC50 (IDO (SKOV-3 cells)): +++ (+++ = pIC50 ≥5.50)
SMILES: C[C@@H](NC(=O)C1Cc2cc(Cl)ccc2N1)c1ccccc1 (some centres unmarked)

From patent US10167257B2, “Indole derivatives for use in medicine” (IOmet Pharma Ltd., priority 2014, dated 2019)
